Test results: ChEMBL document CHEMBL4265918, “Design, synthesis, and biological evaluations of phenylpropiolic acid derivatives as novel GPR40 agonists” (Eur J Med Chem, 2018)
Activity calls are given as the source filed them. The calls are words filed in the database; no cut-off is given here.

The chains behind the UniProt entries cited, without tags or fusion partners.
UniProt O14842, whole entry: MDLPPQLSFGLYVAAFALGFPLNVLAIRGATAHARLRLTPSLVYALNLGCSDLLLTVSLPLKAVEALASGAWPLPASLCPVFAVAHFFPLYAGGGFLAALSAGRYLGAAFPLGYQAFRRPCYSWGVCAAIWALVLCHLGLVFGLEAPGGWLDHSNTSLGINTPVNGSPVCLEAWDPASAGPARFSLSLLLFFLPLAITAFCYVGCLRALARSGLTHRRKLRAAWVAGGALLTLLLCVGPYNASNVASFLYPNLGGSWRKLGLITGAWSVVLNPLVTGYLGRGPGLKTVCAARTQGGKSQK
UniProt Q76JU9, whole entry: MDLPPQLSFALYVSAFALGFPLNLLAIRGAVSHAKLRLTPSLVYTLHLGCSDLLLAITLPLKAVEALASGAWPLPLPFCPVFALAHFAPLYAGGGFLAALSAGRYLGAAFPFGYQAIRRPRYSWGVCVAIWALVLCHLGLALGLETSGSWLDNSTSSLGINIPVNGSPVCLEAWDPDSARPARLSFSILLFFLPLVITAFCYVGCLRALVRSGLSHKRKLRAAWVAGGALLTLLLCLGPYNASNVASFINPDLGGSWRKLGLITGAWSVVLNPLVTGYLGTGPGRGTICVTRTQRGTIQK

Experiments:
Assay type in all cases: functional, cell-based
[1] = target: T1, Free fatty acid receptor 1 (Homo sapiens, UniProt O14842); assay: Agonist activity at recombinant human GPR40 expressed in HEK293 cells assessed as increase in intracellular calcium flux measured for 120 secs in presence of GPR40 antagonist […] by calcium-5 dye based assay
How it was run: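 In HEK293-GPR40 cells loaded with Calcium-5 dye, GPR40 antagonist GW-1100 (10 µM) was added for 15 min before agonist stimulation. Intracellular calcium flux was read by fluorescence. Mean ± SEM, unpaired two-tailed t test.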

[2] = target: T1, Free fatty acid receptor 1; assay: Agonist activity at recombinant human GPR40 expressed in HEK293 cells assessed as phosphorylation of ERK1/2 at 10 after 20 mins by Western blot analysis
How it was run: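 HEK293-GPR40 cells, or HEK293 with empty vector, were serum-starved 2 h, then treated with compounds at 10 µM, 37 °C, 20 min; GW-1100 antagonist where indicated. Lysates in RIPA buffer with protease/phosphatase inhibitors; 30 µg protein run on 10% SDS-PAGE, blotted and probed for phospho-ERK1/2 (Thr202/Tyr204), total ERK1/2 and GAPDH. EGF 50 ng/mL as positive control.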

[3] = target: Free fatty acid receptor 1 (Mus musculus) (UniProt Q76JU9); assay: Agonist activity at GPR40 in mouse MIN6 cells assessed as increase in glucose-stimulated insulin secretion at 10 uM measured after 2 hrs by ELISA relative to control
How it was run: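 MIN6 mouse insulinoma cells, grown in high-glucose DMEM with 15% FBS and 72 µM β-mercaptoethanol, plated 50,000/well and cultured 48 h. Cells were starved 30 min in glucose-free DMEM/15% FBS, then given glucose-free DMEM with 2.5 or 25 mM glucose plus compound for 2 h. Secreted insulin in supernatant was measured by mouse insulin ELISA. GW-1100 used at 10 µM. Mean ± SEM, n=3.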

Activity [1]: inactive
Activity [2]: Active
fold change (FC) [3]: 2
SMILES: Cc1cc(OCCCS(C)(=O)=O)cc(C)c1-c1cccc(COc2ccc3c(c2)OC[C@H]3CC(=O)O)c1
